## Ab-14 heavy chain CDR variants: yeast mating affinities

From the AlphaSeq antibody data of Engelhart et al. 2022 (doi:10.1038/s41597-022-01779-4), copy in the FLAb collection.

Antigen: PDVDLGDISGINAS, a 14-residue peptide of the SARS-CoV-2 spike HR2 region.

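Variants in AAYL49 differ from the parent at up to three CDR positions; double and triple changes were sampled at random. Affinity was read by AlphaSeq, a pooled yeast mating assay with surface-displayed partners. Binding brings cells together so that they mate, and sequencing counts the barcode pairs among the diploids. Read counts were normalised to the haploid input and turned into Kd by a linear fit to BCL2-family pairs of known affinity, for each replicate. Each pool was mated in three replicate cultures.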

Each scFv is VH, the linker GGGGSGGGGSGGGGS, VL, as in the parent Ab-14, and differs from it in the CDRs of the heavy chain only.
VH: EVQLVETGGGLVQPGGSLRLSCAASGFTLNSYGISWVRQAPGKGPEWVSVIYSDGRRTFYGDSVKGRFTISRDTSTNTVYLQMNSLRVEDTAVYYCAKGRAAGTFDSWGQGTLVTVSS
VL: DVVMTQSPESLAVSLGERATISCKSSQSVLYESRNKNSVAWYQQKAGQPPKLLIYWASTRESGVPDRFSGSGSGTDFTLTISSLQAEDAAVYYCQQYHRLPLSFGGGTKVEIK

The parent's heavy chain CDRs are GFTLNSYGIS, VIYSDGRRTFYGDSVK, GRAAGTFDS; each variant's own CDRs replace them letter for letter.
Every variant below is changed at Y52 of the VH (sequential numbering).
The Kd shown is the geometric mean over detected replicates; a lower Kd is a better binder.
Where no diploid with the target was found in any replicate, the entry reads "no signal": below detection, most likely a poor binder, though not proof of it.
Order: sorted from the lowest average up, undetected variants last.

For GFTLNSYGIS | VIFSDGRRTFYGDSVK | GRAAGTFTD, the assay gave 49 nM (3 of 3 replicates). Variant GFTFNSYGIS | VITSDGRRTFYGDSVK | GRAAGTFDS showed 710 nM (1 of 3 replicates). Variant GFTLNSYGIS | VITSDGRRTFYGDSVK | VRDAGTFDS showed 860 nM (1 of 3 replicates). Variant GFTLNSYGIS | VIASDMARTFYGDSVK | GRAAGTFDS showed 910 nM (2 of 3 replicates). Variant GFDLNSYGIS | VISSDGRRTFYEDSVK | GRAAGTFDS showed 1.2 µM (3 of 3 replicates).

With YFTLNSYGIS | VINSDGRMTFYGDSVK | GRAAGTFDS the result was 1.4 µM (1 of 3 replicates). For GFTLNSYGIS | VISSDGRRTFYGDSVK | GAAAGQFDS, the assay gave 2.7 µM (3 of 3 replicates). For GFTWNSYGIS | VILSPGRRTFYGDSVK | GRAAGTFDS, the assay gave 3.0 µM (1 of 3 replicates). Variant GFTLNSYGIS | VIVSDGRRTFYFDSKK | GRAAGTFDS gave 3.1 µM (1 of 3 replicates). For GFTLAKYGIS | VIESDGRRTFYGDSVK | GRAAGTFDS, the assay gave 4.9 µM (2 of 3 replicates).

For GFRLNSYGIS | VIVSDGRRTFYGTSVK | GRAAGTFDS, the assay gave 5.7 µM (1 of 3 replicates). With GFTLNQYGIS | VIMSDGRRTFYEDSVK | GRAAGTFDS the result was 7.8 µM (1 of 3 replicates). Variant GFTLNSYGIS | VIKSDGRRTFYNDSVK | GRAAGHFDS showed 11 µM (1 of 3 replicates). For GGTLNKYGIS | VILSDGRRTFYGDSVK | GRAAGTFDS, the assay gave 14 µM (2 of 3 replicates). Variant GFTLNVYGIS | VINWDGRRTFYGDSVK | GRAAGTFDS gave 15 µM (2 of 3 replicates).

For GFTLNSYGIS | VIKSDGRWTFYGDSVK | GQAAGTFDS, the assay gave 19 µM (1 of 3 replicates). Variant GYTLNSYGIS | VIASDGRRTFIGDSVK | GRAAGTFDS showed 42 µM (3 of 3 replicates). Variant GFTLNSYGIS | VIESDGRRTFYGDSVK | GRAAGTFDS showed 59 µM (1 of 3 replicates). With GFTLNEYGIS | VIQSDGRRTFYGHSVK | GRAAGTFDS the result was 70 µM (1 of 3 replicates). With GFTLNSYGIS | VIPSDGRRTFYTDSVK | GRAGGTFDS the result was 120 µM (3 of 3 replicates).

Variant GFTLNSYHIS | VIRSDGRRNFYGDSVK | GRAAGTFDS gave 120 µM (2 of 3 replicates). With GFTLNSYGIS | VIAMDGRRTFYGDSVK | GRSAGTFDS the result was 340 µM (1 of 3 replicates). Variant LFTINSYGIS | VICSDGRRTFYGDSVK | GRAAGTFDS showed 580 µM (1 of 3 replicates). For GFTLPSYGIS | VIASDGRRTFYGDSVK | GCAAGTFDS, the assay gave 940 µM (1 of 3 replicates). For GFTLASYGIS | PINSDGRRTFYGDSVK | GRAAGTFDS, the assay gave no signal (0 of 3 replicates).

Variant GFNLNSYGIS | VIISDGRRTFYGDSVK | ARAAGTFDS gave no signal (0 of 3 replicates). For GFTLNSYGIS | VIKIDGRRTFYGDSVK | GRAAGTFAS, the assay gave no signal (0 of 3 replicates). For GFTLVSYGIS | VIESDGRPTFYGDSVK | GRAAGTFDS, the assay gave no signal (0 of 3 replicates). Variant GFTLNSYGIS | VIKSDGRRTFQGDSVK | GRAAGTFDA showed no signal (0 of 3 replicates). For GFTLNSYGIS | VIWSPGRRTFYGDSVK | GRAAGTDDS, the assay gave no signal (0 of 3 replicates).

With GFTLNSYGIS | VIWSDGRRTFYGDSVK | GRADGTFDM the result was no signal (0 of 3 replicates). With GFTLESYGIS | VDVSDGRRTFYGDSVK | GRAAGTFDS the result was no signal (0 of 3 replicates). Variant GFTLNSYGIS | VISSDGRRTFYGDSVK | GRAALTFDS gave no signal (0 of 3 replicates). For GFTLNSYGIS | VITSDGRVTFYGDLVK | GRAAGTFDS, the assay gave no signal (0 of 3 replicates). With GFTRNSYGIK | VIFSDGRRTFYGDSVK | GRAAGTFDS the result was no signal (0 of 3 replicates).

With GFTLNSYGIS | VITSDGRRTFSGDSVK | GRGAGTFDS the result was no signal (0 of 3 replicates). Variant AFTLNSYGIS | VILSDGRRTFYGDSVK | PRAAGTFDS gave no signal (0 of 3 replicates). Variant GFTLNSYGIS | RIDSDGRRTFYGDSVK | GRAAGTFDS showed no signal (0 of 3 replicates). With GFTLNSYGIS | VIQSDGYRTFCGDSVK | GRAAGTFDS the result was no signal (0 of 3 replicates). With GFTLNSYGIS | VIISDGRRTFYGDSVK | GRAAKTFDW the result was no signal (0 of 3 replicates).

For GFTLNSYGIS | VILSDWRRGFYGDSVK | GRAAGTFDS, the assay gave no signal (0 of 3 replicates). Variant GFTLNSYYIS | VIWSDGRRTFYGDSVK | GRAAGTFDN showed no signal (0 of 3 replicates). Variant MFTLNSYGIS | VILSDGRRTFYGDSVK | GRAAGNFDS gave no signal (0 of 3 replicates). Variant GFTLNSYLIS | VCCSDGRRTFYGDSVK | GRAAGTFDS showed no signal (0 of 3 replicates). With GFTLNSYGIS | VIVSDGRGTFYGDSVK | GRAEGTFDS the result was no signal (0 of 3 replicates).

Variant GFTLNSYGSS | VIWSDGRRFFYGDSVK | GRAAGTFDS gave no signal (0 of 3 replicates). Variant HFTLNSYGIS | VIFSDGRRTFSGDSVK | GRAAGTFDS gave no signal (0 of 3 replicates). Variant GFTLNSYGIS | VIMSRGRRTFYSDSVK | GRAAGTFDS showed no signal (0 of 3 replicates). Variant GFTLNAYGIS | VTVSDGRRTFYGDSVK | GRAAGTFDS gave no signal (0 of 3 replicates). For GFTLNGYGIV | VIHSDGRRTFYGDSVK | GRAAGTFDS, the assay gave no signal (0 of 3 replicates).

The opening 3 entries, copied out:

{"CDR-H1": "GFTLNSYGIS", "CDR-H2": "VIFSDGRRTFYGDSVK", "CDR-H3": "GRAAGTFTD", "Kd": "49 nM", "detected": "3 of 3"}
{"CDR-H1": "GFTFNSYGIS", "CDR-H2": "VITSDGRRTFYGDSVK", "CDR-H3": "GRAAGTFDS", "Kd": "710 nM", "detected": "1 of 3"}
{"CDR-H1": "GFTLNSYGIS", "CDR-H2": "VITSDGRRTFYGDSVK", "CDR-H3": "VRDAGTFDS", "Kd": "860 nM", "detected": "1 of 3"}

Parent in this assay: reference entry 4.4 nM, copy in this library 13 µM (one replicate of three).
As a blank, each scFv also met three strains without target: over library AAYL49, 15% of these pairings were detected, typically at 11 µM and seldom below 680 nM.